The values below come from US12441689B2 (EpiVario, Inc., priority 2019, dated 2025).

Chains of the proteins cited; added tags and fusions are not shown.
UniProt Q9NR19, whole entry: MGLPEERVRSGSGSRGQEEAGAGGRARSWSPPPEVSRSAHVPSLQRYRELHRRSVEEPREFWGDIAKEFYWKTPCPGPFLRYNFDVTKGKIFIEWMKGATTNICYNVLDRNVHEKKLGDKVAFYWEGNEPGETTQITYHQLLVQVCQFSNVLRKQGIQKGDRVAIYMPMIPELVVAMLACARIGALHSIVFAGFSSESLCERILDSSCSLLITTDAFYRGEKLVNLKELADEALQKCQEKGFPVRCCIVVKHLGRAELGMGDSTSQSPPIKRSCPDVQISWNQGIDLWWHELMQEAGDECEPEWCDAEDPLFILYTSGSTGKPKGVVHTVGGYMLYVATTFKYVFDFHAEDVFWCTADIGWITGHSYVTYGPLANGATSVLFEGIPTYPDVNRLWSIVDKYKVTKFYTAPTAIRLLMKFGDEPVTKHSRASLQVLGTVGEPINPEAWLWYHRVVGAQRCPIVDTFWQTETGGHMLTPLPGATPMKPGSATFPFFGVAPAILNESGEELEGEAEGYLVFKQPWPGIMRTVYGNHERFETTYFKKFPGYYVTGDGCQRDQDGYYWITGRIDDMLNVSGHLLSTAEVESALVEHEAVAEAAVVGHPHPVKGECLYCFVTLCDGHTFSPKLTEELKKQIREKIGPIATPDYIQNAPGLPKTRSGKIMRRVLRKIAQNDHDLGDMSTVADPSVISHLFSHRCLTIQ

pIC50: −log10 of the molar value.

This test deals with human ACSS2 protein (Homo sapiens (Human), UniProt Q9NR19). Description: ACSS2 Cell-Free Activity Assay (Cell-Free IC50). The conditions noted are these: read-out: ACSS2 Biochemical IC50; 10 nM human ACSS2 protein, 90 minutes at 37 C, pyrophosphatase-coupled, Biomol Green absorbance at 620 nm.

For `CCC(F)(F)c1cccc(NC(=O)c2oc(-c3ccc(OC(F)F)c(-c4ccccc4)c3)nc2C)c1`, the pIC50 is below 7.00.
